Experimental data taken from published antibiotic growth screens (doi:10.1038/s41589-023-01349-8).
This is one part of the list.

Test system: A. baumannii ATCC 17978
Assay: relative growth (fraction of control); higher = less inhibition
Details: 50 µM

Structure (SMILES)	relative growth
CCCNC(=O)N[C@H]1C=C[C@H](CC(=O)N2CCN(C)CC2)O[C@@H]1CO	1.15
C=CCCCCCCCCCCCc1ccco1	1.12
COc1cccc(-c2ccc3c(c2)O[C@@H](CN(C)C(=O)C2CC2)[C@H](C)CN([C@H](C)CO)S3(=O)=O)c1	0.852
O=C(C[C@H]1C=C[C@@H](NC(=O)c2ccc(F)cc2)[C@H](CO)O1)NCc1ccncn1	1.07
C[C@@H]1CN([C@H](C)CO)C(=O)c2cc(C#Cc3cccc(F)c3)cnc2O[C@H]1CN(C)C(=O)C1CCOCC1	0.894
Cc1ccc(S[C@]2(C(=O)NCC(C)C)CC(=O)N(Cc3cc(C(F)(F)F)cc(C(F)(F)F)c3)[C@@H]2c2ccc(CO)cc2I)cc1	0.895
CCN(CC)C(=O)N1CCN(CCC#N)CC1	1.09
Nc1ncnc2c1ncn2CCO	0.951
COc1ccc2c(c1)/C(=N\O)C(=O)N2	0.964
CCCNC(=O)Nc1ccc2c(c1)OC[C@H](C)N(Cc1ccc(-c3ccccn3)cc1)C[C@@H](C)[C@@H](OC)CN(C)C2=O	0.899
O=C(CCCCCC(=O)N/N=C/[C@@H](O)[C@@H](O)[C@H](O)[C@H](O)CO)NO	0.939
CCCCCN(CCCCC)C(=O)C(CCC(=O)[O-])NC(=O)c1ccc(Cl)c(Cl)c1.[Na+] (stereo not drawn)	1.03
CO[C@@H]1CN(C)C(=O)c2ccc(NC(=O)Nc3ccc(Cl)cc3)cc2OC[C@H](C)N(C(=O)Nc2c(C)noc2C)C[C@H]1C	1.05
CNC(=O)[C@H]1Cc2ccccc2N1C(=O)COC	0.905
C[C@H]1CN([C@@H](C)CO)S(=O)(=O)c2ccc(C#CC(C)(C)O)cc2O[C@H]1CN(C)C(=O)CN(C)C	1.02
Cc1ccc(NC(=O)CC(C)C)cc1	0.96
CN1CCN(C(=O)C[C@@H]2CC[C@H]3[C@@H](COC[C@H](O)CN3Cc3ccc4c(c3)OCO4)O2)CC1	1
O=C1c2ccccc2[C@](Cc2ccccc2I)(C(=O)O)[C@H](c2ccc(CO)cc2)N1C1CCCCC1	0.969
O=C(C[C@H]1CC[C@H]2[C@@H](COC[C@H](O)CN2S(=O)(=O)c2ccccc2)O1)N1CCOCC1	1.05
Nc1c(C(=O)c2ccccc2)no[n+]1[O-]	0.969
COC(CNC(=O)C(=O)NC[C@H]1OCCN1C(=O)c1ccc2c(c1)OCO2)OC	0.917
CSc1nc(=O)cc(O)[nH]1	0.83

Structure (SMILES)	relative growth
O=C(C[C@H]1C=C[C@@H](NS(=O)(=O)c2ccc(F)cc2)[C@@H](CO)O1)NCCN1CCCCC1	0.668
NS(=O)(=O)c1cc2c(cc1Cl)NC(C(Cl)Cl)NS2(=O)=O (stereo not drawn)	1.11
C[C@H]1CN([C@@H](C)CO)S(=O)(=O)c2ccc(-c3ccc(C#N)cc3)cc2O[C@@H]1CN(C)C(=O)CN(C)C	1.02
CC(C)=CCC[C@@H](C)CC=O	0.944
CC12CCC3c4ccc(O)cc4CCC3C1C[C@H](O)[C@@H]2O (stereo partly drawn)	0.972
C=CCNC1=NS(=O)(=O)c2ccccc21	0.976
CO[C@@H]1CN(C)C(=O)c2cc(NS(C)(=O)=O)ccc2OC[C@@H](C)N(C(=O)CN(C)C)C[C@@H]1C	1.11
O=C(N[C@@H]1C=C[C@H](CC(=O)N2CCOCC2)O[C@H]1CO)c1ccc2c(c1)OCO2	1.01
O=C(O)Cn1nnc(-c2ccccc2)n1	1.06
COCCOC(=O)N1C(=O)[C@@]2(c3cc(C#CC4=CCCCC4)ccc31)[C@H](C(=O)NC[C@H](O)c1ccccc1)[C@H]1C(=O)O[C@H](c3ccccc3)[C@H](c3ccccc3)N1[C@@H]2c1ccc(O)cc1	1.03
COCC(=O)N1C[C@@H](C)[C@H](OC)CN(C)C(=O)c2cc(NC(=O)c3cc(C)on3)ccc2OC[C@@H]1C	0.964
C=C1c2cccc(O)c2C(=O)C2=C(O)[C@]3(O)C(=O)C(C(N)=O)=C(O)[C@@H](N(C)C)[C@@H]3[C@@H](O)[C@H]12.Cl	0.172
O=C(O)CNC(=O)C1CCC1	1.07
CCOC(=O)N1CCN(C(=O)C2CCN(S(=O)(=O)N(CC)CC)CC2)CC1	1.12
O=C(/C=C/c1ccc(O)cc1)c1ccccc1O	0.859
COC(=O)C[C@H]1C(C)(C)C(=O)[C@@H]2CC3=C4CC(=O)O[C@@H](c5ccoc5)[C@]4(C)CCC3[C@@]1(C)C2=O (stereo partly drawn)	1.15
Cc1ccccc1-n1ccc(=O)[nH]c1=O	0.715
COc1ccccc1S(=O)(=O)N(C)C[C@@H]1Oc2c(NC(=O)Nc3cccc4ccccc34)cccc2C(=O)N([C@@H](C)CO)C[C@H]1C	1.03
CCC[C@@H]1C[C@@H](C(=O)N[C@H]([C@H]2O[C@H](SC)[C@H](O)[C@@H](O)[C@H]2O)[C@@H](C)Cl)N(C)C1	0.37
CC(C)Cc1nc2ccccc2[nH]1	0.755
O=C1N[C@@H](Cc2ccccc2)C(=O)N2[C@@H]1C[C@@H](C(=O)NCc1ccc(F)cc1)[C@H]2c1cccc(OCCO)c1	1.07
